target: T1, human β-Secretase (Homo sapiens (Human), UniProt P56817); experiment: TR-FRET assay; type: biochemical; settings: sBACE-Fc, substrate (Europium)CEVNLDAEFK(Qsy7) 100 nM, pH4.5, 15 minutes at r.t.
Protocol: (§1) The β-secretase enzyme used in the TR-FRET is prepared as follows: The cDNA for the soluble part of the human β-Secretase (AA 1-AA 460) was cloned using the ASP2-Fc10-1-IRES-GFP-neoK mammalian expression vector. The gene was fused to the Fc domain of IgG1 (affinity tag) and stably cloned into HEK 293 cells.
(§2) The robotic systems Biomek FX and Velocity 11 were used for all liquid handling and the enzyme and substrate solutions were kept on ice until they were placed in the robotic system. Enzyme (9 μl) was added to the plate then 1 μl of compound in dimethylsulphoxide was added, mixed and pre-incubated for 10 minutes. Substrate (10 μl) was then added, mixed and the reaction proceeded for 15 minutes at r.t. The reaction was stopped with the addition of Stop solution (7 μl, NaAcetate, pH 9). […] The dimethylsulphoxide control, instead of test compound, defined the 100% activity level and 0% activity was defined by wells lacking enzyme (replaced with reaction buffer).

Protein sequences, listed by entry. Tags and fused reporters are not part of them. Residues count along the entry.
UniProt P56817, 22-460: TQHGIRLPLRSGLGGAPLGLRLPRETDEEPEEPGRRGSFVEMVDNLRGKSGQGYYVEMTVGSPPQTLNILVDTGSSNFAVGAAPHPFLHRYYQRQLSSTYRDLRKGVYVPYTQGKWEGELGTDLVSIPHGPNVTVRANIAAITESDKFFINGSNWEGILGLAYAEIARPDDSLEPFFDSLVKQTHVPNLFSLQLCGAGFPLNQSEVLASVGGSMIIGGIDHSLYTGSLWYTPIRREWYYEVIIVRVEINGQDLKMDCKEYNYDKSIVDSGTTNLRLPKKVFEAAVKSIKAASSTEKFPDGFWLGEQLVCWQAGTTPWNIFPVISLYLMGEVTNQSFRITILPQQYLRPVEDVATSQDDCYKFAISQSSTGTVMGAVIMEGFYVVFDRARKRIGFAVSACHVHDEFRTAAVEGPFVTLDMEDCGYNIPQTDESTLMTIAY

SMILES | IC50 [nM]
CC1=NC2(CC3(CCCOC3)Oc3ccc(-c4ccc(F)c(Cl)c4)cc32)N=C1N (single isomer, unassigned) [Example 46b Isomer 1, 6′-(3-Chloro-4-fluorophenyl)-5-methyl-5″,6″-dihydro-4′H-dispiro[imidazole-2,4′-chromene-2′,3″-pyran]-4-amine] | 180
CC#Cc1cncc(-c2ccc3c(c2)C2(N=C(N)C(CC)=N2)[C@]2(CC[C@H](OC)CC2)C3)c1 (single isomer, unassigned) [Example 68 Isomer 2, (1r,4r)-5″-ethyl-4-methoxy-6′-[5-(prop-1-yn-1-yl)pyridin-3-yl]-3′H-dispiro[cyclohexane-1,2′-indene-1′,2″-imidazol]-4″-amine] | 9970
CO[C@H]1CC[C@]2(CC1)Cc1ccc(-c3cc(F)cc(C#N)c3)cc1C21N=C(C)C(N)=N1 (single isomer, unassigned; isomer 2) [Example 76 Isomer 2, 3-[(1r,4r)-4″-amino-4-methoxy-5″-methyl-3′H-dispiro[cyclohexane-1,2′-indene-1′,2″-imidazol]-6′-yl]-5-fluorobenzonitrile] | 636
COc1cccc(-c2ccc3c(c2)C2(CCO3)N=C(C)C(N)=N2)c1F (stereo not drawn) [Example 9, 6-(2-Fluoro-3-methoxyphenyl)-5′-methylspiro[chroman-4,2′-imidazol]-4′-amine] | 1680
CO[C@H]1CC[C@]2(CC1)Cc1ccc(OCCC(F)(F)F)cc1C21N=C(C)C(N)=N1 (stereo partly drawn) [Example 20u, (1r,4r)-4-methoxy-5″-methyl-6′-(3,3,3-trifluoropropoxy)-3′H-dispiro[cyclohexane-1,2′-indene-1′,2″-imidazol]-4″-amine] | 22
CC1=NC2(N=C1N)c1cc(Br)ccc1CC21CCC(F)(F)CC1 (stereo not drawn) [Example 27, 6′-Bromo-4,4-difluoro-5″-methyl-3′H-dispiro[cyclohexane-1,2′-indene-1′,2″-imidazol]-4″-amine] | 1760
CO[C@H]1CC[C@]2(CC1)Cc1ccc(C#N)cc1C21N=C(C)C(N)=N1 (stereo partly drawn) [Example 79, (1r,4r)-4″-Amino-4-methoxy-5″-methyl-3′H-dispiro[cyclohexane-1,2′-indene-1′,2″-imidazole]-6′-carbonitrile] | 188
CO[C@H]1CC[C@]2(CC1)Cc1ccc(-c3cncc(COCC(F)(F)F)c3)cc1C21N=C(C)C(N)=N1 (stereo partly drawn) [Example 82, (1r,4r)-4-Methoxy-5″-methyl-6′-{5-[(2,2,2-trifluoroethoxy)methyl]pyridin-3-yl}-3′H-dispiro[cyclohexane-1,2′-indene-1′,2″-imidazol]-4″-amine] | 66
CO[C@H]1CC[C@]2(CC1)Cc1ccc(-c3cccc(Cl)c3Cl)cc1[C@@]21N=C(C)C(N)=N1 [Example 104, (1r,1′R,4R)-6′-(2,3-dichlorophenyl)-4-methoxy-5″-methyl-3′H-dispiro[cyclohexane-1,2′-indene-1′,2″-imidazol]-4″-amine] | 64
CO[C@H]1CC[C@]2(CC1)Cc1ccc(C#CC3CCC3)cc1C21N=C(C)C(N)=N1 (stereo partly drawn) [Example 112, (1r,4r)-6′-(Cyclobutylethynyl)-4-methoxy-5″-methyl-3′H-dispiro[cyclohexane-1,2′-indene-1′,2″-imidazol]-4″-amine] | 22
CO[C@H]1CC[C@]2(CC1)Cc1ccc(C#CC(C)C)cc1C21N=C(C)C(N)=N1 (stereo partly drawn) [Example 113, (1r,4r)-4-Methoxy-5″-methyl-6′-(3-methylbut-1-yn-1-yl)-3′H-dispiro[cyclohexane-1,2′-indene-1′,2″-imidazol]-4″-amine] | 24
CO[C@H]1CC[C@]2(CC1)Cc1ccc(-c3cnc4[nH]cc(C)c4c3)cc1C21N=C(C)C(N)=N1 (stereo partly drawn) [Example 116, (1r,4r)-4-Methoxy-5″-methyl-6′-(3-methyl-1H-pyrrolo[2,3-b]pyridin-5-yl)-3′H-dispiro[cyclohexane-1,2′-indene-1′,2″-imidazol]-4″-amine] | 26
[2H]C([2H])([2H])O[C@H]1CC[C@]2(CC1)Cc1ccc(-c3cncc(Cl)c3)cc1C21N=C(C)C(N)=N1 (stereo partly drawn) [Example 119, (1r,4r)-6′-(5-Chloropyridin-3-yl)-5′-methyl-4-[(H3)methyloxy]-3′H-dispiro[cyclohexane-1,2′-indene-1′,2″-imidazol]-4″-amine] | 23
CO[C@H]1CC[C@]2(CC1)Cc1ccc(-c3ccc4[nH]cc(C)c4c3)cc1C21N=C(C)C(N)=N1 (stereo partly drawn) [Example 121, (1r,4r)-4-Methoxy-5″-methyl-6′-(3-methyl-1H-indol-5-yl)-3′H-dispiro[cyclohexane-1,2′-indene-1′,2″-imidazol]-4″-amine] | 37
[2H]C([2H])([2H])O[C@H]1CC[C@]2(CC1)Cc1ccc(-c3cc(Cl)cc(C#N)c3)cc1C21N=C(C)C(N)=N1 (stereo partly drawn) [Example 125, 3-{(1r,4r)-4″-Amino-5″-methyl-4-[(^2H3)methyloxy]-3′H-dispiro[cyclohexane-1,2′-indene-1′,2″-imidazol]-6′-yl}-5-chlorobenzonitrile] | 20
CO[C@H]1CC[C@]2(CC1)Cc1ccc(OCC3CCC3)cc1C21N=C(C)C(N)=N1 (stereo partly drawn) [Example 126, (1r,4r)-6′-(Cyclobutylmethoxy)-4-methoxy-5″-methyl-3′H-dispiro[cyclohexane-1,2′-indene-1′,2″-imidazol]-4″-amine] | 20
CCO[C@H]1CC[C@]2(CC1)Cc1ccc(-c3cncc(C(F)(F)F)c3)cc1C21N=C(C)C(N)=N1 (stereo partly drawn) [Example 131, (1r,4r)-4-ethoxy-5′-methyl-6′-[5-(trifluoromethyl)pyridin-3-yl]-3′H-dispiro[cyclohexane-1,2′-indene-1′,2″-imidazol]-4″-amine] | 44

target: T1, human β-Secretase; experiment: Diluted TR-FRET assay; type: biochemical; settings: values marked ^a; 50 times less enzyme, 6.5 h reaction time at r.t. in the dark; listed as 76 Isomer 1; read-out: IC50 in TR-FRET assay (IC50 from the diluted FRET assay)
Protocol: as §1
as §2, with “Substrate (10 μl) was then added, mixed and the reaction proceeded for 15 minutes at r.t.” left out

SMILES | IC50 [nM]
CO[C@H]1CC[C@]2(CC1)Cc1ccc(-c3cc(F)cc(C#N)c3)cc1C21N=C(C)C(N)=N1 (single isomer, unassigned; isomer 1) [Example 76 Isomer 1, 3-[(1r,4r)-4″-amino-4-methoxy-5″-methyl-3′H-dispiro[cyclohexane-1,2′-indene-1′,2″-imidazol]-6′-yl]-5-fluorobenzonitrile] | 3.4

same assay, conditions: values marked ^a; 50 times less enzyme, 6.5 h reaction time at r.t. in the dark; read-out: IC50 in TR-FRET assay (IC50 from the diluted FRET assay)

SMILES | IC50 [nM]
CC1=NC2(CC(C3CCOC(C)(C)C3)Oc3ccc(-c4cccc(Cl)c4)cc32)N=C1N (racemic) [Example 50 Isomeric mixture 2, 6-(3-Chlorophenyl)-2-(2,2-dimethyltetrahydro-2H-pyran-4-yl)-5′-methylspiro[chroman-4,2′-imidazol]-4′-amine] | 5
CO[C@H]1CC[C@]2(CC1)Cc1ccc(-c3cc(Cl)cc(C#N)c3)cc1[C@@]21N=C(C)C(N)=N1 (single isomer, unassigned) [Example 20d Isomer 1] | 0.63
CO[C@H]1CC[C@]2(CC1)Cc1ccc(-c3cncc(Cl)c3)cc1[C@@]21N=C(C)C(N)=N1 (single isomer, unassigned) [Example 20e Isomer 1] | 1.1
CC#Cc1cncc(-c2ccc3c(c2)C2(N=C(N)C(CC)=N2)[C@]2(CC[C@H](OC)CC2)C3)c1 (single isomer, unassigned) [Example 68 Isomer 1, (1r,4r)-5″-ethyl-4-methoxy-6′-[5-(prop-1-yn-1-yl)pyridin-3-yl]-3′H-dispiro[cyclohexane-1,2′-indene-1′,2″-imidazol]-4″-amine] | 1.2
CO[C@H]1CC[C@]2(CC1)Cc1ccc(-c3cncc(Br)c3)cc1C21N=C(C)C(N)=N1 (stereo partly drawn) [Example 20aa, (1r,4r)-6′-(5-Bromopyridin-3-yl)-4-methoxy-5″-methyl-3′H-dispiro[cyclohexane-1,2′-indene-1′,2″-imidazol]-4″-amine] | 1.6
CO[C@H]1CC[C@]2(CC1)Cc1ccc(-c3cc(Cl)cc(C#N)c3)cc1C21N=C(C)C(N)=N1 (stereo partly drawn) [Example 20d, 3-[(1r,4r)-4″-Amino-4-methoxy-5″-methyl-3′H-dispiro[cyclohexane-1,2′-indene-11′,2″-imidazol]-6′-yl]-5-chlorobenzonitrile] | 1.6
CO[C@H]1CC[C@]2(CC1)Cc1ccc(-c3cncc(Cl)c3)cc1C21N=C(C)C(N)=N1 (stereo partly drawn) [Example 20e, (1r,4r)-6′-(5-Chloropyridin-3-yl)-4-methoxy-5″-methyl-3′H-dispiro[cyclohexane-1,2′-indene-1′,2″-imidazol]-4″-amine] | 2.3
CC#Cc1cccc(-c2ccc3c(c2)C2(N=C(C)C(N)=N2)[C@]2(CC[C@H](OC)CC2)C3)c1 (stereo partly drawn) [Example 20z, (1r,4r)-4-Methoxy-5″-methyl-6′-[3-(prop-1-yn-1-yl)phenyl]-3′H-dispiro[cyclohexane-1,2′-indene-1′,2″-imidazol]-4″-amine] | 1.4
CC#Cc1cncc(-c2ccc3c(c2)C2(N=C(C)C(N)=N2)C2(CCC(F)(F)CC2)C3)c1 (stereo not drawn) [Example 28h, 4,4-Difluoro-5″-methyl-6′-[5-(prop-1-yn-1-yl)pyridin-3-yl]-3′H-dispiro[cyclohexane-1,2′-indene-1′,2″-imidazol]-4″-amine] | 7.3

Source: patent US8865911B2, “Compounds and their use as BACE inhibitors” (Astrazeneca AB, priority 2010, dated 2014)
